Laboratory results: patent US20210355225A1 (OSE IMMUNOTHERAPEUTICS, published 2021)

B1: Recombinant hPD1-His (Sino Biologicals, reference […]-H08H) (receptor, human, UniProt Q15116 25-167, looked up)
chain: LDSPDRPWNPPTFSPALLVVTEGDNATFTCSFSNTSESFVLNWYRMSPSNQTDKLAAFPEDRSQPGQDCRFRVTQLPNGRDFHMSVVRARRNDSGTYLCGAISLAPKAQIKESLRAELRVTERRAEVPTAHPSPSPRPAGQFQ
notes: Bought reagent; also called human PD1 recombinant protein; PD-1 recombinant protein; not shown: histidine tail
B2: biotinylated Human PD1 (AcroBiosystems, reference EP-101) (Fc fusion, UniProt Q15116 25-167, looked up)
chain: B1 chain
modifications: biotinylated
notes: also called Biotin-PD-1Fc; not shown: Fc part implied by the name 'Biotin-PD-1Fc'

Key:
[1] = target: T1, human PD-L2 recombinant protein (Sinobiological, 10292-H08H-B) (human, UniProt Q9BQ51 20-219); test: Biacore: human PD-L2 immobilised on the chip, recombinant human PD-1 at 100 nM, no antibody
T1 construct: also called Human recombinant PD-L2
T1 sequence (looked up): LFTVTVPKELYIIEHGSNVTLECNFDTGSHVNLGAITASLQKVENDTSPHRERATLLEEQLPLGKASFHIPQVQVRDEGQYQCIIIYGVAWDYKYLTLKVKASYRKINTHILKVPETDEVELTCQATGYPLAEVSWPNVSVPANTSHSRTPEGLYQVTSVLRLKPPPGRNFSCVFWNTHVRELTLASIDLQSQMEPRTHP

[2] = target: T2, PD-L2 (Sinobiological, #10292-H02H) (UniProt Q9BQ51 20-219); test: Competition ELISA: PD-L2 immobilised at 2 ug/mL, biotinylated human PD1 at 0.66 ug/ml, peroxidase-labelled streptavidin, DO 450 nm
T2 sequence (looked up): T1 sequence (looked up)

Binder	binding result [1]	binding result [2]
B1	binds	
B2		binds
